From US11401278B2, “Macrocyclic indole derivatives” (The Broad Institute, Inc., priority 2017, dated 2022)

The chains behind the UniProt entries cited, without tags or fusion partners.
UniProt Q07820, whole entry: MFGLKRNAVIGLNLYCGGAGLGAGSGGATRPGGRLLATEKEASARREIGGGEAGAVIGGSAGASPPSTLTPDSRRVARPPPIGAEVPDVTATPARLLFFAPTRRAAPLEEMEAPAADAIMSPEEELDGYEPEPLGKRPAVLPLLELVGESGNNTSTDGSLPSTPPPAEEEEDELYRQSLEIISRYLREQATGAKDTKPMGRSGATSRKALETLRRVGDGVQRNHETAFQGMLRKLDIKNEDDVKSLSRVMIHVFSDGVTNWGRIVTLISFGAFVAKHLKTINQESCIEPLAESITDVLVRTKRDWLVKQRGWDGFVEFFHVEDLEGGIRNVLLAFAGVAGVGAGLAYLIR

Assays:
MCL1 protein = MCL1 protein (Homo sapiens (Human), UniProt Q07820); experiment: PIxEL: protein-protein interaction in permeabilized cells by ELISA (Assay 5); details: read-out: PIXEL [M] (median) IC50, permeabilized RKO cells, Biotin-BIM peptide 0.2 μM, serum free
Procedure: PI×EL: Protein-Protein Interaction in Permeabilized Cells by ELISA
Most MCL1 protein molecules are localized at the mitochondria outer membrane and sequester pro-apoptotic proteins through binding of their BCL2 homology domain 3 (BH3 domain). MEB buffer (150 mM mannitol, 10 mM HEPES pH 7.5, 50 mM KCl, 20 μM EDTA, 20 μM EGTA, 5 mM potassium succinate, 0.1% protease-free BSA (SIGMA) with low dose digitonin (0.002%) permeabilizes plasma membrane while leaves live mitochondria, where MCL1 maintains its native localization and conformation. Unlike biophysical assays (e.g. TR-FRET) that use truncated recombinant MCL1 protein, this assay uses full length endogenous MCL1 protein at mitochondria outer membrane. It measures the interaction between MCL1 protein and biotinylated BIM BH3 peptide. Compounds can compete with BIM BH3 peptide to bind to MCL1 protein. This serum free assay measures the affinity between MCL1 protein and compound in permeabilized cells, therefore it is not affected by serum binding and cell permeability, and can measure the intrinsic compound affinity. […]
On the third day, ELISA plates were washed once with 250 μl 1×PBST. […] Plates were shaken for 1 minute then luminescence was measured by Envision plate reader (HP). […] IC50 was calculated using Graphic Pad PRISM software.

SUDHL5 = experiment: Antiproliferation assay (Assay 7), SUDHL5; details: read-out: Antiproli SUDHL5 [M] (median) IC50, CellTiter-Glo, 72 hours
Procedure: Assessment of the Anti-Proliferative Effect of Compounds in Different Cell Lines
The impact of compounds on the proliferation of different cell lines was assessed using the CellTiter-Glo® Luminescent Cell Viability reagent from Promega (G7573).
The different cell lines were plated in culture medium (RPMI 1640 [Biochrom; #FG 1215] supplemented with 10% Fetal Calf Serum [Biochrom; #S 0415]) at a density of 3,300 cells (for suspension cells) or 800 cells (for adherent cells) in 30 μl/well in a sterile, solid black, flat bottom, polystyrene, TC-treated 384-well microplate (Corning #3571) using Multidrop Combi Reagent Dispenser. In parallel, cells were plated in a reference (day 0) plate for time zero determination. […]
On the next day, cells were treated with compounds (stock solution, 10 mM in DMSO) using the HP D300 Digital Dispenser in a concentration range of 3.3×10e-5 M (33 μM) to 5×10e-9 M (5 nM) in a single-dot curve with at least 16 dilutions and a DMSO concentration of 0.33%. […] The day 0 plate was measured by adding 30 μL/well of CTG solution (CellTiter-Glo® Luminescent Cell Viability reagent, Promega G7573) to time zero wells in the reference plate followed by a 10 minutes incubation and luminescence reading at 0.1 ms. using the PHERAstar FS microplate reader (BMG Labtech).
After 72 hours incubation, the treated plates were measured in the same way as the day 0 plate mentioned above. […]

IC50 (MCL1 protein): 7.65e-07 M
IC50 (SUDHL5): 6.9e-06 M
SMILES: CCc1c2c(nn1C)CNS(=O)(=O)CCCn1c(C(=O)O)c(CCCOc3cccc4cc(F)ccc34)c3ccc(Cl)c-2c31
